This note sets out measurements from ChEMBL document CHEMBL4177600, “Identification of novel PI3K inhibitors through a scaffold hopping strategy” (Bioorg Med Chem Lett, 2017).

The target in assay [1] is Phosphatidylinositol 4,5-bisphosphate 3-kinase catalytic subunit gamma isoform (Homo sapiens, UniProt P48736). Description: Inhibition of recombinant full-length human N-terminal His6-tagged p110gamma expressed in baculovirus infected Sf21 insect cells using PIP2 as substrate by HTRF assay. The following applies: read-out: Ki(app).
In another assay the target is PI3K p110 beta/p85 alpha (Homo sapiens, UniProt P42338). Description: Inhibition of p110beta/85alpha (unknown origin) using PIP2 as substrate by HTRF assay. The format is protein-complex assay. The following applies: read-out: Ki(app).
Assay [2] concerns the target Serine/threonine-protein kinase mTOR (Homo sapiens, UniProt P42345). The assay can be described thus: Inhibition of recombinant human GST-tagged mTOR catalytic domain (1360 to 2549 residues) expressed in baculovirus expression system by AlexaFluor647-labeled kinase tracer 314 based LanthaScreen assay.

Take `CS(=O)(=O)N1CCN(Cc2nc3c(N4CCOCC4)nc(-c4cnc(N)nc4)cn3n2)CC1`: the values for the Ki (in assay [1]; at PI3K p110 beta/p85 alpha) were 20.7 nM and 155 nM, respectively. Besides, in assay [2], the IC50 turned out to be 1260 nM.

On to `CS(=O)(=O)N1CCN(Cc2cn3nc(-c4cnc(N)nc4)nc(N4CCOCC4)c3n2)CC1`, for which, in assay [2], the IC50 came to 1840 nM.
